## Ab-14 heavy chain CDR variants: yeast mating affinities

Data: MIT Lincoln Laboratory AlphaSeq set, Li et al. 2023, doi:10.1038/s41467-023-39022-2, as distributed in FLAb.

The target is the same throughout: PDVDLGDISGINAS, from the HR2 region of SARS-CoV-2 spike.

Parent: Ab-14, a human scFv built as VH, a (GGGGS)3 linker, VL. Only the CDRs of the heavy chain vary.
VH: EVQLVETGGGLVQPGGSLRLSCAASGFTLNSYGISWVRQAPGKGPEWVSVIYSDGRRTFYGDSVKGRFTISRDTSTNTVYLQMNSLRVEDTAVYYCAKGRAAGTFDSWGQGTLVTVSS
VL: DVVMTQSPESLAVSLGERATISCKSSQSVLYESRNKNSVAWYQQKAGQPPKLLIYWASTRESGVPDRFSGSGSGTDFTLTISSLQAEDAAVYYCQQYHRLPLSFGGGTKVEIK

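The parent was found by panning a naive human phage display library on the peptide. The variants were designed computationally from a first round of random CDR variants and then made and measured. Their group label is 14H_En_HC (En: ensemble of fine-tuned language models; HC: hill climbing; a sequence that several methods proposed may carry one label only). The scFvs were displayed on barcoded MATa yeast, the peptide on MATalpha yeast. The frequency of each diploid, read from paired DNA barcodes, reflects how well the two displayed proteins bind. Each replicate has its own calibration line, from reference interactions of the BCL2 family. There are six technical replicates.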

Variants are written as CDR1, CDR2 and CDR3 of the heavy chain (limits as in the source). Parent: GFTLNSYGIS, VIYSDGRRTFYGDSVK, GRAAGTFDS.
Affinities are written as log10 Kd with Kd in nM; a lower number is a better binder.
An entry "n.d." has no value in the source: the pair was not observed among the diploids in that replicate. This suggests poor binding but is not conclusive.
In the paper, a design with two or fewer of six values counts as a poor binder.
Values of this round are not directly comparable with the first-round values of the same sequences.
Of ten entries with the parent sequence, four were seen in most replicates (averages 0.34 to 2.37), three in one and three in none, so single entries are noisy.
Background: pairings of all heavy chain designs with three empty control strains gave a value in 1% of cases (median 2.08, 5th percentile 0.84). Values in that range, when seen in few replicates, are hard to tell from nonspecific mating. The control count says in how many pairings with the empty strains this scFv gave a signal, with their mean in brackets.

| CDR-H1 | CDR-H2 | CDR-H3 | log10 Kd (nM) by replicate | signal with controls |
|---|---|---|---|---|
| GFDLNEYGIS | VIYADGMRTFYADSVK | GNNAGTFIS | n.d. / n.d. / n.d. / n.d. / 0.54 / n.d. | 0/18 |
| GFNLNEYGIS | VIYADGVRTFYADSVK | GQIAGTFDV | -0.44 / -0.08 / -0.73 / -0.31 / -0.45 / 0.00 | 0/18 |
| GFDLNEYGIS | VIYADGVRTFYTDSVK | GNAAGTFDV | 0.39 / 0.49 / 0.09 / 0.31 / 0.16 / 0.50 | 1/18 (3.39) |
| GFDLNEYGIS | VIYADGMRTFYADSVK | GQLAGTFSV | -0.47 / -0.38 / -0.43 / -0.65 / -0.45 / -0.47 | 0/18 |
| GFDLNEYGIS | VIYADGQRTAYADSVK | GNAAGTFDS | -0.16 / 0.22 / -0.20 / -0.27 / 0.05 / -0.18 | 1/18 (1.74) |
| GFDLNEYGIS | VIYADGRRTFYADSVK | GEVAGTFDI | -0.10 / -0.38 / -0.35 / -0.24 / -0.21 / 0.54 | 1/18 (1.83) |
| GFDLNEYGIS | VIYADGRRTFYDDSVK | GQNAGTFDL | -0.08 / -0.10 / -0.47 / -0.76 / -0.35 / -0.26 | 1/18 (2.01) |
| GFDLNEYGIS | VIYADGRRTFYSDKVK | GNNGGTFDI | 0.29 / 0.12 / -0.04 / -0.23 / -0.49 / 0.17 | 0/18 |
| GFQLDEYGIS | VIYADGRRTAYADSVK | GEVAGTFDV | 0.04 / 0.06 / -0.40 / -0.34 / -0.80 / -0.22 | 0/18 |
| GFDLNEYGIS | VIYADGRRTFYKDSVK | GQIAGTFDQ | -0.31 / -0.82 / -0.65 / -0.35 / -0.72 / -0.61 | 0/18 |
| GFDLNEYGIS | VIYADGMRTAYGDSVK | GTNAGTFDQ | 0.04 / -0.39 / -0.61 / -1.02 / -0.57 / -0.14 | 0/18 |
| GFDLNEYGIS | VIYADGMRTFYDDSVK | GQLAGTFDV | -0.54 / -0.77 / -0.64 / -0.87 / -0.77 / -0.46 | 1/18 (1.39) |
| GFDLNEYGIS | VIYADGRRTSYIDSVK | GEIAGTFDS | 0.00 / -0.23 / -0.74 / -0.46 / -0.28 / -0.35 | 1/18 (1.36) |
| GFDLNEYGIS | VIYADGRRTFYADSVK | GNEAGTFDI | 0.36 / 0.22 / 0.88 / 0.21 / 0.57 / 0.77 | 0/18 |
| GFSLDEYGIS | VIYADGRRTFYADSVK | GNSAGTFDM | 0.85 / 0.66 / 0.63 / 0.63 / 2.26 / 1.50 | 0/18 |
| GFDLEDYGIS | VIYADGQRTAYADSVK | GEIAGTFDV | -0.34 / 0.40 / 0.01 / 0.24 / -0.09 / -0.11 | 0/18 |
| GFDLNEYGIS | VIYADGKRTFYSDSVK | GNQAGTFDS | -0.34 / -0.60 / -0.66 / -0.83 / -0.77 / -0.43 | 0/18 |
| GFDLNEYGIS | VIYADGSRTFYSDSVK | GNVAGTFDS | -0.60 / 0.14 / -0.03 / -0.42 / 0.78 / 0.76 | 0/18 |
| GFDLNEYGIS | VIYADGRRTAYIDSVK | GEEAGTFDK | 0.24 / 0.07 / -0.01 / -0.28 / 0.17 / 0.48 | 0/18 |
| GFDLNEYGIS | VIYADGRRTFYTDSVK | GTFAGTFDQ | 0.44 / 0.31 / 0.27 / -0.01 / 0.47 / 0.42 | 1/18 (2.64) |
| GFDLNEYGIS | VIYADGVRTFYADSVK | GNTAGTFLS | -0.04 / -0.43 / -0.53 / -0.60 / -0.53 / -0.49 | 0/18 |
| GFDLNEYGIS | VIYADGRRTFYADSVK | GNAAGTFNV | -0.57 / -0.88 / -0.82 / -0.85 / -0.87 / -0.72 | 0/18 |
| GFDLNEYGIS | VIYADGRRTAYDDSVK | GQVAGTFDT | -0.28 / -0.51 / -0.53 / -0.11 / -0.51 / -0.15 | 1/18 (3.25) |
| GFDLNEYGIS | VIYADGRRTFYSDSVK | GEAGGTFDI | -0.75 / -0.59 / -0.95 / -0.93 / -0.93 / -0.56 | 0/18 |
| GFDLNEYGIS | VIYADGRRTAYADSVK | GNLAGTFDT | 0.09 / -0.90 / -0.92 / -0.77 / -1.40 / -0.60 | 1/18 (0.91) |
| GFDLNEYGIS | VIYADGMRTFYTDSVK | GETAGTFDV | -0.58 / -1.11 / -0.70 / -0.90 / -0.47 / 0.29 | 0/18 |
| GFDLNEYGIS | VIYADGRRTFYSDSVK | GEAAGTFDW | 0.36 / 0.99 / n.d. / -0.82 / n.d. / -0.07 | 0/18 |
| GFDLEEYGIS | VIYADGRRTFYADSVK | GENAGTFDV | -0.16 / 0.20 / 0.76 / -0.33 / -0.11 / -0.25 | 0/18 |
| GFDLNEYGIS | VIYADGRRTFYADNVK | GEVAGTFFV | 0.26 / 0.26 / 0.08 / 0.17 / 0.32 / 0.54 | 0/18 |
| GFNLNEYGIS | VIYADGRRSFYSDSVK | GEAAGTFDV | -0.10 / -0.38 / -0.38 / -0.69 / -0.45 / -0.42 | 0/18 |
| GFDLNEYGIS | VIYADGRRTFYTDSVK | GEDAGTFDQ | 0.42 / 0.06 / 0.02 / 0.15 / 0.11 / 0.35 | 0/18 |
| GFDLNEYGIS | VIYADGRRTFYADSVK | GEEAGTFDF | 0.18 / 0.03 / 0.24 / -0.06 / -0.66 / -0.17 | 0/18 |
| GFDLNEYGIS | VIYADGKRTFYADSVK | GNTAGTFLS | -0.31 / -0.04 / -0.51 / -0.77 / -0.36 / -0.35 | 1/18 (3.27) |
| GFDLNEYGIS | VIYADGRRTAYVDQVK | GTNAGTFDQ | -1.07 / -0.80 / -0.97 / -1.19 / -0.94 / -0.84 | 0/18 |
| GFDLNDYGIS | VIYADGMRTQYIDSVK | GEVAGTFDL | 0.20 / 0.14 / 0.60 / -0.36 / -0.06 / 0.08 | 0/18 |
| GFDLNDYGIS | VIYADGRRTAYVDSVK | GEVAGTFDS | -0.33 / -0.29 / 0.02 / -0.26 / -0.49 / -0.17 | 0/18 |
| GFDLNEYGIS | VIYADGRRTFYADSVK | GEAAGTFNQ | -0.31 / -0.02 / 0.41 / -0.24 / 0.57 / 0.25 | 0/18 |
| GFDLEDYGIS | VIYADGRRTFYSDSVK | GEIAGTFDM | n.d. / n.d. / n.d. / 0.99 / n.d. / n.d. | 1/18 (2.12) |
| GFDLNEYGIS | VIYADGRRTFYTDSVK | GELAGTFDQ | -0.31 / -0.67 / -0.67 / -0.80 / -0.60 / -0.62 | 0/18 |
| GFDLNEYGIS | VIYADGRRTFYADSVK | GNTAGTFTS | -0.72 / -0.57 / -0.02 / -0.59 / 0.04 / -0.34 | 0/18 |
| GFDLNEYGIS | VIYADGRRTFYADSVK | GKNAGTFDI | 0.91 / -0.08 / -0.19 / -0.40 / -0.28 / 0.19 | 0/18 |
| GFDLNEYGIS | VIYADGMRTFYSDSVK | GEAGGTFDV | n.d. / 1.81 / 2.63 / n.d. / 2.60 / 2.39 | 1/18 (1.74) |

3 of these entries, quoted again:

| CDR-H1 | CDR-H2 | CDR-H3 | log10 Kd (nM) by replicate | signal with controls |
|---|---|---|---|---|
| GFDLNEYGIS | VIYADGRRTAYADSVK | GNLAGTFDT | 0.09 / -0.90 / -0.92 / -0.77 / -1.40 / -0.60 | 1/18 (0.91) |
| GFDLNEYGIS | VIYADGRRTAYIDSVK | GEEAGTFDK | 0.24 / 0.07 / -0.01 / -0.28 / 0.17 / 0.48 | 0/18 |
| GFDLNEYGIS | VIYADGMRTFYTDSVK | GETAGTFDV | -0.58 / -1.11 / -0.70 / -0.90 / -0.47 / 0.29 | 0/18 |